This is an account of results in PubChem BioAssay AID2718 (Broad Institute, 2010).

By UniProt entry, the sequences of proteins in these tests, tags left out.
UniProt O15379, whole entry: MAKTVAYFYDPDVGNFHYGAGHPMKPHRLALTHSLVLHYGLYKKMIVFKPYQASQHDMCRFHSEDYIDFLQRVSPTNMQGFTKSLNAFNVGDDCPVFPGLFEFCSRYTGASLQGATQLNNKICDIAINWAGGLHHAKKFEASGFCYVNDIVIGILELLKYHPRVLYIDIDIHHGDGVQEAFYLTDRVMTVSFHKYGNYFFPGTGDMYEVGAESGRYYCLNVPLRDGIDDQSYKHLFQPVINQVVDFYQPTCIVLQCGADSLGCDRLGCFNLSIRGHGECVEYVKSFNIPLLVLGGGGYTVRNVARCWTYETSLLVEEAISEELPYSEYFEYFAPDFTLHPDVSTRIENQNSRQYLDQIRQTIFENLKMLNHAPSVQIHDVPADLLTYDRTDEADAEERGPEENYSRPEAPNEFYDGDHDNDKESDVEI

This is a selection; strong and weak results do not stand in their true shares. Calls of active or inactive are those of the source. Rule as the data show it: active = inhibition above about 26% (passing the limit was not always enough); inconclusive = no clear call, values can overlap the other calls.

This test concerns the target Histone deacetylase 3 (Homo sapiens) (UniProt O15379). In words: inhibition of human HDAC3 enzyme activity – biochemical, fluorescence, cell-free homogeneous, primary screen (AID 2718). As to conditions: recombinant HDAC3, fluorogenic peptide/trypsin coupled, at 8.3 µM, active compounds read high.
Consider `CP(=O)(Oc1ccccc1)N1CCOC1=O` (stereo unspecified), for which the inhibition is inactive: 1.95%.
